The values below come from ChEMBL document CHEMBL1132927, “New proline mimetics: synthesis of thrombin inhibitors incorporating cyclopentane- and cyclopentenedicarboxylic acid templates in the P2 position. Binding conformation investigated by X-ray crystallography” (J Med Chem, 2000).

This test deals with Prothrombin (Homo sapiens, UniProt P00734). In words: In vitro for the inhibition of thrombin.

Take `CCN(C(=O)C1=CCC[C@H]1C(=O)NCc1ccc(C(=N)N)cc1)C1CCCCC1`: half-maximal inhibition (IC50) was put at 0.89 µM.

Take `CCN(C(=O)[C@@H]1CCC[C@H]1C(=O)NCc1ccc(C(=N)N)cc1)C1CCCCC1`: it took 13.2 µM to reach half-maximal inhibition (IC50).
